Assay [1] deals with P. aerugin. ATCC 10145. The conditions noted are these: ATCC 10145, 2 h, pH 7.4.
Assay [2] deals with S. epiderm. ATCC 14990. As to conditions: ATCC 14990, 2 h, pH 7.4.
Assay [3] has as its system S. aureus ATCC 6538. As to conditions: ATCC 6538, 2 h, pH 7.4.
For assay [4], the system named is C. albicans ATCC 24433. The conditions noted are these: ATCC 24433, 2 h, pH 7.4.
The test system of assay [5] is S. epiderm. ATCC 12228. As to conditions: ATCC 12228, 2 h, pH 7.4.
For assay [6], the system named is E. coli ATCC 11775. The conditions noted are these: ATCC 11775, 2 h, pH 7.4.

The structures appear in SMILES notation. Values after ≈ are worked out from the molar mass of the structure shown.

As for `CC(C)C[C@H](NC(=O)[C@H](CCCCN)NC(=O)[C@H](Cc1ccccc1)NC(=O)[C@H](CCC(=O)O)NC(=O)[C@H](CC(C)C)NC(=O)[C@H](CCCNC(=N)N)NC(=O)[C@@H](N)C(C)C)C(=O)N[C@@H](CCC(N)=O)C(=O)N[C@@H](CCC(N)=O)C(=O)N[C@H](C(=O)N[C@@H](CO)C(=O)N[C@@H](CS)C(=O)N[C@@H](CCCNC(=N)N)C(=O)N[C@@H](CCCCN)C(=O)N[C@@H](CCCNC(=N)N)C(=O)N[C@@H](CC(=O)O)C(=O)N[C@@H](Cc1c[nH]c2ccccc12)C(=O)N[C@@H](CCCCN)C(=O)N[C@@H](CCCCN)C(=O)N1CCC[C@H]1C(=O)O)[C@@H](C)O` [p4], the MIC in assay [1] was 6.3 mg/L (≈ 2.47 µM); in assay [2], 12.5 mg/L (≈ 4.91 µM); in assay [3], 12.5 mg/L (≈ 4.91 µM); in assay [4], 6.3 mg/L (≈ 2.47 µM); in assay [5], 12.5 mg/L (≈ 4.91 µM); in assay [6] it was 3.1 to 6.3 mg/L.

As a reminder, the MIC is the least concentration at which growth counts as inhibited. Lower therefore signals a more susceptible organism.

The values are drawn from publication PMC3604073, “Chemerin Is an Antimicrobial Agent in Human Epidermis” (PLoS ONE, 2013).
